Assay results published in US9266877B2, “Apoptosis-inducing agents for the treatment of cancer and immune and autoimmune diseases” (priority 2011, dated 2016).

Protein sequences, listed by entry. Tags and fused reporters are not part of them.
UniProt P10415, whole entry: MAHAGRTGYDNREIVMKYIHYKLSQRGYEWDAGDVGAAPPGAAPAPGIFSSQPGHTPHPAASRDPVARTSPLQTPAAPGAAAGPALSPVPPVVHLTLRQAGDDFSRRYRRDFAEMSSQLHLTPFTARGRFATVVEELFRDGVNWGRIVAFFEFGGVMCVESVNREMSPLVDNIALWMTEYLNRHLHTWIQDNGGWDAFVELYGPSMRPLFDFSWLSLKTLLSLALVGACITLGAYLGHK

Columns and labels:
[1] = Single Dose Pharmacokinetics, oral bioavailability; format: in vivo, Sprague-Dawley rats; settings: Rat p.o. dose
Bcl-2 = Bcl-2 (Homo sapiens (Human), UniProt P10415); assay: TR-FRET binding assay with GST-Bcl-2 substituted for GST-Bcl-xL

Ki (Bcl-2) [nM]	Structure (SMILES)	F (%), dose ([1]; 5 mpk)	other results
	CC(c1ccccc1)n1cc(-c2ccc(N3CCc4cccc(C(=O)Nc5nc6ccccc6s5)c4C3)nc2C(=O)O)cn1 (stereo not shown) [Example 5, 6-[8-(1,3-benzothiazol-2-ylcarbamoyl)-3,4-dihydroisoquinolin-2(1H)-yl]-3-[1-(1-phenylethyl)-1H-pyrazol-4-yl]pyridine-2-carboxylic acid]	19, 5 mpk %	
	Cc1nn(Cc2ccccc2)c(C)c1-c1ccc(N2CCc3cccc(C(=O)Nc4nc5ccccc5s4)c3C2)nc1C(=O)O [Example 12, 6-[8-(1,3-benzothiazol-2-ylcarbamoyl)-3,4-dihydroisoquinolin-2(1H)-yl]-3-(1-benzyl-3,5-dimethyl-1H-pyrazol-4-yl)pyridine-2-carboxylic acid]	29, 5 mpk %	
	Cc1nn(Cc2ccccc2)cc1-c1ccc(N2CCc3cccc(C(=O)Nc4nc5ccccc5s4)c3C2)nc1C(=O)O [Example 19, 6-[8-(1,3-benzothiazol-2-ylcarbamoyl)-3,4-dihydroisoquinolin-2(1H)-yl]-3-(1-benzyl-3-methyl-1H-pyrazol-4-yl)pyridine-2-carboxylic acid]	22, 5 mpk %	
	Cc1c(-c2ccc(N3CCc4cccc(C(=O)Nc5nc6ccccc6s5)c4C3)nc2C(=O)O)cnn1Cc1ccccc1 [Example 20, 6-[8-(1,3-benzothiazol-2-ylcarbamoyl)-3,4-dihydroisoquinolin-2(1H)-yl]-3-(1-benzyl-5-methyl-1H-pyrazol-4-yl)pyridine-2-carboxylic acid]	17, 5 mpk %	
23	Cc1c(-c2ccc(N3CCc4cccc(C(=O)Nc5nc6ccccc6s5)c4C3)nc2C(=O)O)cnn1CC1CCCCC1 [Example 43, 6-[8-(1,3-benzothiazol-2-ylcarbamoyl)-3,4-dihydroisoquinolin-2(1H)-yl]-3-[1-(cyclohexylmethyl)-5-methyl-1H-pyrazol-4-yl]pyridine-2-carboxylic acid]		
39	Cc1c(-c2ccc(N3CCc4cccc(C(=O)Nc5nc6ccccc6s5)c4C3)nc2C(=O)O)cnn1Cc1ccccc1OCCN(C)C [Example 49, 6-[8-(1,3-benzothiazol-2-ylcarbamoyl)-3,4-dihydroisoquinolin-2(1H)-yl]-3-(1-{2-[2-(dimethylamino)ethoxy]benzyl}-5-methyl-1H-pyrazol-4-yl)pyridine-2-carboxylic acid]		
	Cc1c(-c2ccc(N3CCc4cccc(C(=O)Nc5nc6ccccc6s5)c4C3)nc2C(=O)O)cnn1CC1CCCC1 [Example 63, 6-[8-(1,3-benzothiazol-2-ylcarbamoyl)-3,4-dihydroisoquinolin-2(1H)-yl]-3-[1-(cyclopentylmethyl)-5-methyl-1H-pyrazol-4-yl]pyridine-2-carboxylic acid]	20, 5 mpk %	
33	Cc1c(-c2ccc(N3CCc4cccc(C(=O)Nc5nc6ccccc6s5)c4C3)nc2C(=O)O)cnn1CC1(C)CCCCC1 [Example 82, 6-[8-(1,3-benzothiazol-2-ylcarbamoyl)-3,4-dihydroisoquinolin-2(1H)-yl]-3-{5-methyl-1-[(1-methylcyclohexyl)methyl]-1H-pyrazol-4-yl}pyridine-2-carboxylic acid]		
	COCCC1(Cn2cc(-c3ccc(N4CCc5cccc(C(=O)Nc6nc7ccccc7s6)c5C4)nc3C(=O)O)cn2)CCCCC1 [Example 88, 6-[8-(1,3-benzothiazol-2-ylcarbamoyl)-3,4-dihydroisoquinolin-2(1H)-yl]-3-(1-{[1-(2-methoxyethyl)cyclohexyl]methyl}-1H-pyrazol-4-yl)pyridine-2-carboxylic acid]	23, 5 mpk %	
	COCCCC1(Cn2ncc(-c3ccc(N4CCc5cccc(C(=O)Nc6nc7ccccc7s6)c5C4)nc3C(=O)O)c2C)CCCCC1 [Example 97, 6-[8-(1,3-benzothiazol-2-ylcarbamoyl)-3,4-dihydroisoquinolin-2(1H)-yl]-3-(1-{[1-(3-methoxypropyl)cyclohexyl]methyl}-5-methyl-1H-pyrazol-4-yl)pyridine-2-carboxylic acid]	33, 5 mpk %	
	O=C(Nc1nc2ccccc2s1)c1cccc2c1CN(c1ccc(-c3cccc(Cc4ccccc4)c3)c(C(=O)O)n1)CC2 [Example 106, 6-[8-(1,3-benzothiazol-2-ylcarbamoyl)-3,4-dihydroisoquinolin-2(1H)-yl]-3-(3-benzylphenyl)pyridine-2-carboxylic acid]	24, 5 mpk %	
56	Cc1c(CC2CCCCC2)cccc1-c1ccc(N2CCc3cccc(C(=O)Nc4nc5ccccc5s4)c3C2)nc1C(=O)O [Example 107, 6-[8-(1,3-benzothiazol-2-ylcarbamoyl)-3,4-dihydroisoquinolin-2(1H)-yl]-3-[3-(cyclohexylmethyl)-2-methylphenyl]pyridine-2-carboxylic acid]		
21	O=C(Nc1nc2ccccc2s1)c1cccc2c1CN(c1ccc(-c3cccc(OC4CCCCC4)c3Cl)c(C(=O)O)n1)CC2 [Example 117, 6-[8-(1,3-benzothiazol-2-ylcarbamoyl)-3,4-dihydroisoquinolin-2(1H)-yl]-3-[2-chloro-3-(cyclohexyloxy)phenyl]pyridine-2-carboxylic acid]		
	O=C(Nc1nc2ccccc2s1)c1cccc2c1CN(c1ccc(-c3cn(Cc4ccccc4)nn3)c(C(=O)O)n1)CC2 [Example 122, 6-[8-(1,3-benzothiazol-2-ylcarbamoyl)-3,4-dihydroisoquinolin-2(1H)-yl]-3-(1-benzyl-1H-1,2,3-triazol-4-yl)pyridine-2-carboxylic acid]	40, 5 mpk %	
76	Cc1c(-c2ccc(N3CCc4cccc(C(=O)Nc5nc6ccccc6s5)c4C3)nc2C(=O)O)cc(C#N)n1CC1CCCCC1 [Example 130, 6-[8-(1,3-benzothiazol-2-ylcarbamoyl)-3,4-dihydroisoquinolin-2(1H)-yl]-3-[5-cyano-1-(cyclohexylmethyl)-2-methyl-1H-pyrrol-3-yl]pyridine-2-carboxylic acid]		
24	COCCC1(Cn2ncc(-c3ccc(N4CCc5cccc(C(=O)Nc6nc7ccccc7s6)c5C4)nc3C(=O)O)c2C)CCCCCC1 [Example 134, 6-[8-(1,3-benzothiazol-2-ylcarbamoyl)-3,4-dihydroisoquinolin-2(1H)-yl]-3-(1-{[1-(2-methoxyethyl)cycloheptyl]methyl}-5-methyl-1H-pyrazol-4-yl)pyridine-2-carboxylic acid]		
	COCCC1(Cn2ncc(-c3ccc(N4CCc5cccc(C(=O)Nc6nc7ccccc7s6)c5C4)nc3C(=O)O)c2C)CCCC(C)(C)C1 (stereo not shown) [Example 146, 6-[8-(1,3-benzothiazol-2-ylcarbamoyl)-3,4-dihydroisoquinolin-2(1H)-yl]-3-(1-{[1-(2-methoxyethyl)-3,3-dimethylcyclohexyl]methyl}-5-methyl-1H-pyrazol-4-yl)pyridine-2-carboxylic acid]	16, 5 mpk %	
75	COCCC1(Cn2ncc(-c3ccc(N4CCc5cccc(C(=O)Nc6nc7ccccc7s6)c5C4)nc3C(=O)NS(C)(=O)=O)c2C)CCCCCC1 [Example 148, N-(1,3-benzothiazol-2-yl)-2-{5-(1-{[1-(2-methoxyethyl)cycloheptyl]methyl}-5-methyl-1H-pyrazol-4-yl)-6-[(methylsulfonyl)carbamoyl]pyridin-2-yl}-1,2,3,4-tetrahydroisoquinoline-8-carboxamide]		
	Cc1c(-c2ccc(N3CCc4cccc(C(=O)Nc5nc6ccccc6s5)c4C3)nc2C(=O)O)cccc1N(C)c1ccccc1 [Example 156, 6-[8-(1,3-benzothiazol-2-ylcarbamoyl)-3,4-dihydroisoquinolin-2(1H)-yl]-3-{2-methyl-3-[methyl(phenyl)amino]phenyl}pyridine-2-carboxylic acid]		F (%), dose ([1]; 1 mpk): 39, 1 mpk %
	COC1(Cn2ncc(-c3ccc(N4CCc5cccc(C(=O)Nc6nc7ccccc7s6)c5C4)nc3C(=O)O)c2C)CCCC(C)(C)C1 (stereo not shown) [Example 157, 6-[8-(1,3-benzothiazol-2-ylcarbamoyl)-3,4-dihydroisoquinolin-2(1H)-yl]-3-{1-[(1-methoxy-3,3-dimethylcyclohexyl)methyl]-5-methyl-1H-pyrazol-4-yl}pyridine-2-carboxylic acid]		F (%), dose ([1]; 1 mpk): 30, 1 mpk %
	Cc1c(-c2ccc(N3CCc4cccc(C(=O)Nc5nc6ccccc6s5)c4C3)nc2C(=O)O)cccc1N(C)C1CCCC(C)(C)C1 (stereo not shown) [Example 159, 6-[8-(1,3-benzothiazol-2-ylcarbamoyl)-3,4-dihydroisoquinolin-2(1H)-yl]-3-{3-[(3,3-dimethylcyclohexyl)(methyl)amino]-2-methylphenyl}pyridine-2-carboxylic acid]		Ki (Bcl-2; GST-Bcl-2, read-out: Ki, competition with F-Bak for the Bcl-2 binding site (TR-FRET)): 272 nM
14	CNCCOC1(Cn2ncc(-c3ccc(N4CCc5cccc(C(=O)Nc6nc7ccccc7s6)c5C4)nc3C(=O)O)c2C)CCCC(C)(C)C1 (stereo not shown) [Example 185, 6-[8-(1,3-benzothiazol-2-ylcarbamoyl)-3,4-dihydroisoquinolin-2(1H)-yl]-3-[1-({3,3-dimethyl-1-[2-(methylamino)ethoxy]cyclohexyl}methyl)-5-methyl-1H-pyrazol-4-yl]pyridine-2-carboxylic acid]		

Structure (SMILES)	Ki (Bcl-2) [nM]	F (%), dose ([1]; 5 mpk)	other results
Cc1c(-c2ccc(N3CCc4cccc(C(=O)Nc5nc6ccccc6s5)c4C3)nc2C(=O)O)cnn1Cc1ccccc1OCC1CCOCC1 [Example 99, 6-[8-(1,3-benzothiazol-2-ylcarbamoyl)-3,4-dihydroisoquinolin-2(1H)-yl]-3-{5-methyl-1-[2-(tetrahydro-2H-pyran-4-ylmethoxy)benzyl]-1H-pyrazol-4-yl}pyridine-2-carboxylic acid]	33	19, 5 mpk %	
Cc1c(-c2ccc(N3CCc4cccc(C(=O)Nc5nc6ccccc6s5)c4C3)nc2C(=O)O)cc(C#N)n1CC1(N(C)C)CCCCC1 [Example 176, 6-[8-(1,3-benzothiazol-2-ylcarbamoyl)-3,4-dihydroisoquinolin-2(1H)-yl]-3-(5-cyano-1-{[1-(dimethylamino)cyclohexyl]methyl}-2-methyl-1H-pyrrol-3-yl)pyridine-2-carboxylic acid]	177		

Where two headings read alike, the source gives them in different places.
